The values below come from US7238711.

The target of test [1] is T1, Duffy Antigen Receptor for Chemokines (DARC) (human), Q16570.
T1 chain: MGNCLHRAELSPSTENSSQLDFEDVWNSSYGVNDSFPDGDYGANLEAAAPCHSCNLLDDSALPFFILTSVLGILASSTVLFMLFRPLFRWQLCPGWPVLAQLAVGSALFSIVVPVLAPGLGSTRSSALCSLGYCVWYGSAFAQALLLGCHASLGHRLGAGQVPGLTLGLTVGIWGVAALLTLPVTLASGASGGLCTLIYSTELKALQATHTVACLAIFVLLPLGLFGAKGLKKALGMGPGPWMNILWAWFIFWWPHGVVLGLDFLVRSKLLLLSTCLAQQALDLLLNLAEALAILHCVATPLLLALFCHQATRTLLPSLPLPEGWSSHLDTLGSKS
As to the kind of experiment: estimated ka for red blood cells divided by average inhibitory ED50.

Test [2] concerns the target T1, Duffy Antigen Receptor for Chemokines …. As to the kind of experiment: ratio of the constant for DARC to the inhibitory ED50.
For test [3] the target is unchanged. In words: DARC binding (printed as affinity constant).
The target is the same in test [4]. As to the kind of experiment: estimated ka for red blood cells divided by inhibitory ED50.

Turning to WVQ (modifications not checked), the Duffy selectivity in test [1] was 24.8. The DARC selectivity in test [2] was found to be 10. Further, in test [3], the dissociation constant (Kd) was 2 µM.

As to KQK (modifications not checked), in test [3], the Kd was 15 µM. For the same molecule, the Duffy selectivity in test [4] was 22.3.
